The first assay relates to A549. Kind of assay: Cell cycle arrest in human A549 cells assessed as accumulation at G0/G1 phase at 70 nM after 20 hrs by propidium iodide staining based flow cytometry (reference value: 66 +/- 1%). It counts as functional. On the technique in general: A flow cytometer gives signals particle by particle.
Turning to `COc1ccc(/C=C\c2cc(OC)c(OC)c(OC)c2)cc1NC(=O)Oc1ccc(Cl)c(C)c1`, the Activity is on record as 24%.

Another assay concerns A549. Kind of assay: Cell cycle arrest in human A549 cells assessed as accumulation at G0/G1 phase at 750 nM after 20 hrs by propidium iodide staining based flow cytometry (reference value: 66 +/- 1%). It counts as functional.
As to `COc1ccc(/C=C\c2cc(OC)c(OC)c(OC)c2)cc1NC(=O)Oc1cc(C)cc(C)c1`, the Activity is on record as 24%.

A further assay relates to A549. The assay can be described thus: Cell cycle arrest in human A549 cells assessed as accumulation at S phase at 2000 nM after 20 hrs by propidium iodide staining based flow cytometry (reference value: 16 +/- 1%). Format: functional.
`COc1ccc(/C=C\c2cc(OC)c(OC)c(OC)c2)cc1NC(=O)Oc1c(C)cccc1C`: the Activity turned out to be 17%.

A further assay is filed under the species Bos taurus. Kind of assay: Inhibition of calf brain tubulin polymerization in glycerol-assembly buffer assessed as critical concentration for tubulin assembly at 27.5 uM measured every 30 secs for 2 hrs in presence of GTP.
Turning to `COc1ccc(/C=C\c2cc(OC)c(OC)c(OC)c2)cc1NC(=O)Oc1cccc(C(F)(F)F)c1`, the Activity amounted to 14 µM.
Take `COc1ccc(/C=C\c2cc(OC)c(OC)c(OC)c2)cc1NC(=O)Oc1ccccc1C(F)(F)F`: the Activity came out at 23 µM.
With `COc1ccc(/C=C\c2cc(OC)c(OC)c(OC)c2)cc1NC(=O)Oc1ccc(C(F)(F)F)cc1`, the Activity came to 20 µM.
On to `COc1ccc(/C=C\c2cc(OC)c(OC)c(OC)c2)cc1NC(=O)Oc1ccc(C)c(Cl)c1`, for which the Activity is 24 µM.
`COc1ccc(/C=C\c2cc(OC)c(OC)c(OC)c2)cc1NC(=O)Oc1ccccc1OC`: the Activity was found to be 16 µM.
Take `COc1ccc(/C=C\c2cc(OC)c(OC)c(OC)c2)cc1NC(=O)Oc1cccc(C)c1`: the Activity is 20 µM.
As to `COc1ccc(/C=C\c2cc(OC)c(OC)c(OC)c2)cc1NC(=O)Oc1ccccc1C`, the Activity was found to be 22 µM.
Regarding `COc1ccc(/C=C\c2cc(OC)c(OC)c(OC)c2)cc1NC(=O)Oc1ccccc1F`, the Activity was found to be 18 µM.
As to `COc1ccc(OC(=O)Nc2cc(/C=C\c3cc(OC)c(OC)c(OC)c3)ccc2OC)cc1`, the Activity was 23 µM.
With `COc1cccc(OC(=O)Nc2cc(/C=C\c3cc(OC)c(OC)c(OC)c3)ccc2OC)c1`, the Activity amounted to 20 µM.
With `COc1ccc(/C=C\c2cc(OC)c(OC)c(OC)c2)cc1NC(=O)Oc1cccc(C)c1C`, the Activity was found to be 25 µM.
`COc1ccc(/C=C\c2cc(OC)c(OC)c(OC)c2)cc1NC(=O)Oc1ccc(F)cc1`: the Activity amounted to 22 µM.
For the compound `COc1ccc(/C=C\c2cc(OC)c(OC)c(OC)c2)cc1NC(=O)Oc1ccccc1Cl`, the Activity was 21 µM.
For `COc1ccc(/C=C\c2cc(OC)c(OC)c(OC)c2)cc1NC(=O)Oc1ccc(Cl)c(C)c1`, the Activity was 24 µM.
Same read-out and setting: as for `COc1ccc(/C=C\c2cc(OC)c(OC)c(OC)c2)cc1NC(=O)Oc1cccc(Cl)c1`, the figure is 23 µM.
`COc1ccc(/C=C\c2cc(OC)c(OC)c(OC)c2)cc1NC(=O)Oc1cccc(Cl)c1C`: the Activity was 23 µM.
In the case of `COc1ccc(/C=C\c2cc(OC)c(OC)c(OC)c2)cc1NC(=O)Oc1ccc(C)c(C)c1`, the Activity is 21 µM.
With `COc1ccc(/C=C\c2cc(OC)c(OC)c(OC)c2)cc1NC(=O)Oc1ccc(Cl)cc1`, the Activity was 24 µM.
Still for that read-out and setting: to `COc1ccc(/C=C\c2cc(OC)c(OC)c(OC)c2)cc1NC(=O)Oc1ccccc1` belongs 20 µM; to `COc1ccc(/C=C\c2cc(OC)c(OC)c(OC)c2)cc1NC(=O)Oc1cccc(Br)c1`, 25 µM; to `COc1ccc(/C=C\c2cc(OC)c(OC)c(OC)c2)cc1NC(=O)Oc1cc(C)cc(C)c1`, 24 µM.
Regarding `COc1ccc(/C=C\c2cc(OC)c(OC)c(OC)c2)cc1NC(=O)Oc1ccc(C)cc1`, the Activity stood at 25 µM.
With `COc1ccc(/C=C\c2cc(OC)c(OC)c(OC)c2)cc1N`, the Activity was 23 µM.
Take `COc1ccc(/C=C\c2cc(OC)c(OC)c(OC)c2)cc1NC(=O)Oc1ccccc1Br`: the Activity amounted to 22 µM.
As to `COc1ccc(/C=C\c2cc(OC)c(OC)c(OC)c2)cc1NC(=O)Oc1c(C)cccc1C`, the Activity is 17 µM.
As to `COc1ccc(/C=C\c2cc(OC)c(OC)c(OC)c2)cc1NC(=O)Oc1ccc(Br)cc1`, the Activity was 23 µM.
Turning to `COc1ccc(/C=C\c2cc(OC)c(OC)c(OC)c2)cc1NC(=O)Oc1cccc(F)c1`, the Activity amounted to 24 µM.

The values above are taken from ChEMBL document CHEMBL4145540, “Synthesis and biological evaluation of carbamates derived from aminocombretastatin A-4 as vascular disrupting agents” (Eur J Med Chem, 2018).
